Reference: patent US20140155376A1, “PYRROLOPYRAZINE KINASE INHIBITORS” (Hoffmann-La Roche Inc., priority 2010, published 2014)

The chains behind the UniProt entries cited, without tags or fusion partners. Residues count along the entry.
UniProt P52333, 810-1124: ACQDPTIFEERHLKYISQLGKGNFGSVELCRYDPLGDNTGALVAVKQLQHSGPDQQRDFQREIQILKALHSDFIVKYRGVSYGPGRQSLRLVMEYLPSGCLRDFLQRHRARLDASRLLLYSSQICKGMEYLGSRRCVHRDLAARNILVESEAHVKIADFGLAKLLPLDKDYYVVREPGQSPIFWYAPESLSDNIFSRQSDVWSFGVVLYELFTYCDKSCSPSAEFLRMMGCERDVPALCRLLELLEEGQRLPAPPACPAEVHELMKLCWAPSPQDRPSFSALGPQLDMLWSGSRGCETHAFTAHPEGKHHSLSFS

Target: T1, JAK3 (recombinant human kinase domain; h-jak3(810-1124)) (Homo sapiens, UniProt P52333)
T1 construct: h-jak3(810- 1124)-sf9-c; made in house; host or cells: Sf9 insect cells
Experiment: Determination of IC50 of Janus Kinase (JAK) inhibition: JAK3, radioactive end-point assay with 33P-ATP
Format: biochemical
Details: ATP 1.5 uM, peptide 50 uM, 20 minutes, room temperature, 10% DMSO, read-out: Ic50 h-jak3(810-1124)-sf9-c:no additive

Structure (SMILES) | IC50 [µM]
CC(C)NC(=O)c1c[nH]c2ncc(C3CC3)nc12 [Example I-8, 2-Cyclopropyl-5H-pyrrolo[2,3-b]pyrazine-7-carboxylic acid isopropylamide] | 0.0488
C[C@@H](NC(=O)c1c[nH]c2ncc(C3CC3)nc12)C(C)(C)O [Example I-30, 2-Cyclopropyl-5H-pyrrolo[2,3-b]pyrazine-7-carboxylic acid ((R)-2-hydroxy-1,2-dimethyl-propyl)-amide] | 0.0191
